Test results reported in PubChem BioAssay AID641 (Vanderbilt High Throughput Screening Facility, 2007).
The entries are a selection whose mix differs from that of the whole data set. Activity calls are given as the source filed them.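 Rule for the calls: active = luminescence count or its row- and column-corrected plate score outside the 99.7% band of the plate's sample wells, on either side; inactive = the rest.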

Protein sequences, listed by entry. Tags and fused reporters are not part of them.
UniProt P21728, whole entry, looked up: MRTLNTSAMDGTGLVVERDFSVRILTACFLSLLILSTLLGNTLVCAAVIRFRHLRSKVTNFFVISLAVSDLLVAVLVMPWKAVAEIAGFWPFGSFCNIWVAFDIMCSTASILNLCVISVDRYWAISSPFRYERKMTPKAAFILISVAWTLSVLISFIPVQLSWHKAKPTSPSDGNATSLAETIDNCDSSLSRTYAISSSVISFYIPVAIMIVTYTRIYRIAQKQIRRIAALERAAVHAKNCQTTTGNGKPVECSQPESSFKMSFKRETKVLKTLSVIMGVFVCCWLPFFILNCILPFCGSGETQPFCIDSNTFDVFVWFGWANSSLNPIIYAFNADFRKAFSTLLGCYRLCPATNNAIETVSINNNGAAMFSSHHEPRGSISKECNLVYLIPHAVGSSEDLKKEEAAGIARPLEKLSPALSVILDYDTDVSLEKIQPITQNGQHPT

target: D(1A) dopamine receptor (Homo sapiens) (UniProt P21728); experiment: D1 CRE-luciferase signal change, two-sided – cell-based, HEK293 D1, dopamine EC30, D1 allosteric modulator project, primary screen (AID 641); details: dopamine EC30 potentiation, at 10 µM, actives deviate in either direction

Compound	B-score
CCOP1(=S)c2c(C)nn(CCC#N)c2N=C(c2ccccc2F)N1C (centres undefined)	inactive: 1.09
O=P(Nc1nccs1)(c1ccccc1)c1nc2ccccc2s1 (centres undefined)	inactive: 0.112
CCOP1(=S)c2c(C)nn(CCC#N)c2N=C(c2ccc(F)cc2)N1C (centres undefined)	inactive: 1.43
Cc1nn(-c2ccccc2)c2c1P(=O)(N1CCOCC1)N(C)C(c1ccccc1)=N2 (centres undefined)	inactive: 0.362
Clc1n[nH]nc1-c1nn[nH][15n]1	inactive: -0.303
O=P1(Nc2ccccn2)COc2ccccc2OC1	inactive: -0.0118
O=C(COc1ccccc1)OC1CN2CCC1CC2 (centres undefined)	inactive: -0.278
COP1(=S)c2c(C)nn(CCC#N)c2N=C(c2ccc(F)cc2)N1C (centres undefined)	inactive: 0.325
O=C(OC1CN2CCC1CC2)C12CC3CC(CC(C3)C1)C2 (centres undefined)	inactive: 0.194
Cc1c2non([O-])c-2c(C)[n+](=O)[n+]1[O-]	inactive: 0.0738
CCc1nc2c(n1)c1c(non1O)c1c2no[n+]1[O-]	inactive: 0.0637
c1nnnn1CCn1cnnn1	inactive: 0.0581
O=P(Nc1nccs1)(c1ccccc1)c1ccccc1	inactive: -1.3
COC(=O)c1cc2c(s1)N=C(c1ccccc1)N(C)P2(=O)N1CCOCC1 (centres undefined)	inactive: -0.91
